Measurements as given in publication PMC10823771, “Investigating the replacement of carboxylates with carboxamides to modulate the safety and efficacy of platinum(II) thioether cyanide scavengers” (2023).
This is a selection: effects in other tests are not listed, and their absence says nothing.

Experiments:
[1] = test system: Sprague Dawley rats; test: Sprague Dawley toxicity model; conditions: dose of up to 871 µmole/m^2, after 5 days
Text: Sprague Dawley rats (Envigo and Inotiv) with weight ranges of 225–250 g were used for this study performed at the Purdue Translational Pharmacology and Clinical Veterinary Pathology Laboratories. Blood samples were drawn 1- and 5-days post-injection and processed for Comprehensive Metabolite Panel and Complete Blood Count Panel. Each sample group consisted of 3 males and 3 females unless otherwise specified in the results. At the end of the study, the animals were euthanized following the PHS Policy on the Human Care and Use of Animals, Guide for the Use and Care of Laboratory Animals. All methods were carried out in accordance with the regulations and guidelines of the Animal Welfare Act and the American Association for Accreditation of Laboratory Animal Care. The IACUC committee at Purdue University approved all experimental protocols (1405001069).
Complexes 1 and 3 were formulated in phosphate buffer. The final pH of the formulation at the time of injection was 6.5–7.0 using sodium hydroxide for pH adjustment. Complexes 2 and 4 were prepared in sodium acetate buffer (Ca^2+ and Mg^2+-free) with pH adjustments using sodium hydroxide to a target pH of 4.2. Final adjustments were made using Milli-Q water to reduce the osmolality of the solution.
Analysis was carried out using GraphPad Prism version 10.0.02. […]

[2] = test system: Zebrafish larvae; conditions: exposed up to 1000 µM; ref Nath et al., 2017; cited from earlier work

For Sodium tetracyanoplatinate anhydrous, the renal toxicity [1] is given as “no significant renal toxicity” and the “toxicity or gross morphological signs in zebrafish” value [2] is given as “no signs of toxicity”.
